The text below walks through data of ChEMBL document CHEMBL1149259, “Potent N-(1,3-thiazol-2-yl)pyridin-2-amine vascular endothelial growth factor receptor tyrosine kinase inhibitors with excellent pharmacokinetics and low affinity for the hERG ion channel” (J Med Chem, 2004).

By UniProt entry, the sequences of proteins in these tests, tags left out. Where a name states a change or a piece, a line headed by the entry shows the natural chain unless it says otherwise.
UniProt Q12809: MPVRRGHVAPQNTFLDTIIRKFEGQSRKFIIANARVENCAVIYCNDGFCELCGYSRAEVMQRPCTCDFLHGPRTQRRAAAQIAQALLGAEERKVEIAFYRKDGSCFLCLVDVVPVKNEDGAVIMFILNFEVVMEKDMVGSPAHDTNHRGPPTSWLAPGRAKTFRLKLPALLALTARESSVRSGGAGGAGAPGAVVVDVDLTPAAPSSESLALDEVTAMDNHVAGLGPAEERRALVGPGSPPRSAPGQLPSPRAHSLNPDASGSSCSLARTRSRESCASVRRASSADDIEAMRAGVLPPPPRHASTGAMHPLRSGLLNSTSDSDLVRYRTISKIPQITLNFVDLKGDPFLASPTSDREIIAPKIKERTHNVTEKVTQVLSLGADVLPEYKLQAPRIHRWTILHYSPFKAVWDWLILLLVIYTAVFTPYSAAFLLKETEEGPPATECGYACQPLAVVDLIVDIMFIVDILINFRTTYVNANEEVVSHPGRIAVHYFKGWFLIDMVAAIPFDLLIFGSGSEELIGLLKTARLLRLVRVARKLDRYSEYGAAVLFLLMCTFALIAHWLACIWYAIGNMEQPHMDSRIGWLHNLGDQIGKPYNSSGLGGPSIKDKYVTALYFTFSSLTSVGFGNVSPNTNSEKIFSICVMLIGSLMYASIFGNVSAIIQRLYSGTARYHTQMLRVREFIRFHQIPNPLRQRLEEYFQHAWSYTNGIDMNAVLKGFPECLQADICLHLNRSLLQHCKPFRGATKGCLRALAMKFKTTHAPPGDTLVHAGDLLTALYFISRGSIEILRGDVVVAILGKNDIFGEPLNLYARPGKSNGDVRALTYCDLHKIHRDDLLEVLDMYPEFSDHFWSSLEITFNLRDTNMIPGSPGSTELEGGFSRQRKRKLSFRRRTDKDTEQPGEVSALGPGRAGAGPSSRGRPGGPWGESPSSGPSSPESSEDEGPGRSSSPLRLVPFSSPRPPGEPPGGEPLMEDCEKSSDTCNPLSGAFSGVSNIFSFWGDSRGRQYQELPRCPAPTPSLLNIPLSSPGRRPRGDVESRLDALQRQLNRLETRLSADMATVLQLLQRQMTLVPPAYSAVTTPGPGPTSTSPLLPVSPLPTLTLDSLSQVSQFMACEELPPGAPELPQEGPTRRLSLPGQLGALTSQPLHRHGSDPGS

In data set [1] the target is Voltage-gated inwardly rectifying potassium channel KCNH2 (Homo sapiens, UniProt Q12809). Put plainly: Displacement of [35S][…] from human ERG expressed in HEK293 cells. Format: cell-based. Conditions: read-out: Inflection point. A general note: Loss of bound radioactivity is the signal in a displacement assay; it reports binding, not function.
The species named for data set [2] is Homo sapiens. Put plainly: Protein binding in human plasma. Conditions: read-out: PPB (converted).

Structures are written as SMILES.

Turning to `CC(=O)N1CCN(Cc2ccnc(Nc3ncc(C#N)s3)c2)CC1`, the IC50 in data set [1] worked out at 10.6 µM. Also, in data set [2], the fraction unbound was 0.106.

For the molecule `CNC(=O)N1CCN(Cc2ccnc(Nc3ncc(C#N)s3)c2)CC1`, the fraction unbound in data set [2] is 0.126.
